Earlier results, collected in patent US20230310628A1, “Multi-Targeted Multi-Valent Ligand Drug Particles for the Treatment and Prevention of Diseases and Conditions” (priority 2017, published 2023).

System: EGFR-overexpressing human breast cancer cells
Conditions: anti-EGFR immunoliposomes; cited from earlier work

For “cetuximab-Fab′: Fab′ derived from cetuximab”, the “surface valency of conjugated ligands at plateau of cell binding and internalization” value is listed as 30-40 /liposome.
